Experimental data as given in US5232633A, “Sulfoethyl carbonate wetting agents and their use in detergent compositions” (priority 1992, dated 1993).

How the values were obtained:
[1] = Foam height, Ross-Miles method; type: physicochemical; conditions: 45° C., water with 120 ppm calcium hardness; for Foam Ht., 10 min Ht.: after 10 minutes
[2] = tested on: zein; conditions: 1% solution of surfactant (30 mls), 1.5 g zein, room temperature, 1 hr
Procedure: Specifically, the lower the amount of zein protein dissolved, usually the milder a surfactant is. Conversely, the more zein dissolved, typically the more irritating the surfactant is. In order to test irritancy potential, a 1% solution of surfactant (30 mls) was added to 1.5 g zein and stirred at room temperature for 1 hr. Residual zein was collected and dried to constant weight. Differences between starting and residual weights were used to calculate % zein dissolved.

Row | Compound | Foam Ht., Initial Ht. [1] [mm] | Foam Ht., 10 min Ht. [1] [mm] | % Zein Solub. [2] [%]
1 | CCCCCCCCCCCCOC(=O)OCCS(=O)(=O)O.[Na] | 159 |  | 
2 | Sodium 2-sulfoethyl C16 Guerbet carbonate [SEC16GC] | 170 | 159 | 
3 | Sodium 2-sulfoethyl C18 Guerbet carbonate [SEC18GC] | 44 | 35 | 
4 | Sodium 2-sulfoethyl tetradecyl/dodecyl (2EO) carbonate [SET/D(2EO)C] | 159 | 153 | 25
